Results as given in article PMC10573946, “Enhancing Giardicidal Activity and Aqueous Solubility through the Development of “RetroABZ”, a Regioisomer of Albendazole: In Vitro, In Vivo, and In Silico Studies” (International Journal of Molecular Sciences, 2023).

Assays:
[1] = test system: Huh-7 (human hepatocellular carcinoma cell line); test: In vitro cytotoxic assay (CellTiter 96 AQueous One) in Huh-7; assay type: cell-based; settings: CC50 Huh-7 / IC50 G. lamblia
Procedure: (§1) The cytotoxic assay of RetroABZ was carried out in Huh-7 (human hepatocellular carcinoma cell line) cells acquired from ATCC (American Type Culture Collection, Manassas, VA, USA). We also included an immortalized human epidermal keratinocyte line (HaCaT) as a control of non-cancerous cells. The cells were cultured in a DMEM medium (Invitrogen, Thermo Fisher Scientific, Inc., Waltham, MA, USA), supplemented with 10% fetal bovine serum (SFB, Invitrogen) and 2 mM glutamine. All cultures were maintained under standard culture conditions (37 °C and 5% CO2). For the cytotoxic assessment in a 96-well plate, 5000 cells per well were planted. […] The cellular viability was next calculated utilizing the CellTiter 96® AQueous One Solution Cell Proliferation Assay kit (Promega, Madison, WI, USA), following the manufacturer’s instructions. The experiments were carried out in triplicate in separate experiments. The Prism 8.0 statistical tool (Graphpad Software Inc., La Jolla, CA, USA) was used to examine the data, and a regression analysis was used to obtain the IC50.

[2] = test system: HaCaT (immortalized human keratinocytes); test: In vitro cytotoxic assay (CellTiter 96 AQueous One) in HaCaT; assay type: cell-based; settings: CC50 HaCaT / IC50 G. lamblia
Procedure: as §1

## CCCSc1ccc2nc(NC(=O)OC)[nH]c2c1 [Albendazole]
[1]
  Selectivity Index CC50/IC50 Huh-7: 407
[2]
  Selectivity Index CC50/IC50 HaCaT: 603
